Source: ChEMBL document CHEMBL3638407, “Serine/threonine kinase inhibitors” (2014)

Protein sequences, listed by entry. Tags and fused reporters are not part of them.
UniProt P28482, whole entry: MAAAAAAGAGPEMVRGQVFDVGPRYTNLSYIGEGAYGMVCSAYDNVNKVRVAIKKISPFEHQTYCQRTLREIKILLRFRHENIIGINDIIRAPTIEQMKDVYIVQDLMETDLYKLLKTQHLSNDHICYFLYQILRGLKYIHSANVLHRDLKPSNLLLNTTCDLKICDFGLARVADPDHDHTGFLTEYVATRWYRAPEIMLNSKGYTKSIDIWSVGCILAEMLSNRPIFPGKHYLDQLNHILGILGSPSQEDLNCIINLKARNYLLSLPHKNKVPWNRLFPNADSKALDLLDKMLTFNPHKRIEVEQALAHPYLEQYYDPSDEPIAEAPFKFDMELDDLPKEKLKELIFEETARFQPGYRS

Molecular target: Mitogen-activated protein kinase 1 (Homo sapiens, UniProt P28482)

O=c1cc(-c2ccnc(N[C@@H]3C[C@@H]4C[C@H]3CO4)n2)ccn1[C@H](CO)c1ccc(Cl)c(F)c1
IC50: 6.3 nM
